According to US20120108593A1, “Extreme temperature aqueous decontamination composition” (published 2012):

Experiment: Live agent NMR testing (31P) against VX
Conditions: 25° C., 10 μL agent with 500 μL solution (FIG. 1)

## O=c1[nH]c(=O)n(Cl)c(=O)n1Cl
  decontamination of VX agent: completely decontaminated
